Test results published in PubChem BioAssay AID1839 (Johns Hopkins Ion Channel Center, 2009).
This is a selection; strong and weak results do not stand in their true shares. Activity calls are given as the source filed them.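 The calls were made as follows: active = signal change above the mean of dofetilide-free buffer controls plus 3 SD, so a positive margin; inactive = the rest.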

Experiment: thallium signal changes without hERG – cell-based, CHO-K1 parental line, FluxOR thallium flux, counter-screen for hERG block protection project, confirmation (AID 1839);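 also: compounds applied alone with no dofetilide to cells lacking hERG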
Conditions: CHO-K1 parental cells, FluxOR thallium flux fluorescence; at 10 µM

SMILES | signal change vs control minus 3*SD hit threshold (margin above threshold, higher = more increase)
CCOC(=O)N1CCC(Nc2ccc(OC)cc2)CC1 | inactive: -19.8%
